Values of other authors, collected in patent US20230174946A1, “ORGAN INFECTION MODELS” (priority 2020, published 2023).

Test system: coxsackievirus
Details: dose-dependent; previous study; cited from earlier work

B1: IFNB1: known anti-viral cytokine; Type 1 interferon; stock provided by Dr. Jay Kolls (protein, UniProt P01574 22-187, looked up)
Interferon beta: MSYNLLGFLQRSSNFQCQKLLWQLNGRLEYCLKDRMNFDIPEEIKQLQQFQKEDAALTIYEMLQNIFAIFRQDSSSTGWNETIVENLLANVYHQINHLKTVLEEKLEKEDFTRGKLMSSLHLKRYYGRILHYLKAKEYSHCAWTIVRVEILRNFYFINRLTGYLRN
In the case of B1, the “effect on coxsackievirus proliferation in vitro” value is given as “significantly reduce coxsackievirus proliferation”.
